Measured values as given in patent US7514571B2, “Bicyclo derivative” (Kyorin Pharmaceutical Co., Ltd., priority 2004, dated 2009).

Protein sequences, listed by entry. Tags and fused reporters are not part of them. Residues count along the entry.
UniProt P28843, 37-760 limits assumed: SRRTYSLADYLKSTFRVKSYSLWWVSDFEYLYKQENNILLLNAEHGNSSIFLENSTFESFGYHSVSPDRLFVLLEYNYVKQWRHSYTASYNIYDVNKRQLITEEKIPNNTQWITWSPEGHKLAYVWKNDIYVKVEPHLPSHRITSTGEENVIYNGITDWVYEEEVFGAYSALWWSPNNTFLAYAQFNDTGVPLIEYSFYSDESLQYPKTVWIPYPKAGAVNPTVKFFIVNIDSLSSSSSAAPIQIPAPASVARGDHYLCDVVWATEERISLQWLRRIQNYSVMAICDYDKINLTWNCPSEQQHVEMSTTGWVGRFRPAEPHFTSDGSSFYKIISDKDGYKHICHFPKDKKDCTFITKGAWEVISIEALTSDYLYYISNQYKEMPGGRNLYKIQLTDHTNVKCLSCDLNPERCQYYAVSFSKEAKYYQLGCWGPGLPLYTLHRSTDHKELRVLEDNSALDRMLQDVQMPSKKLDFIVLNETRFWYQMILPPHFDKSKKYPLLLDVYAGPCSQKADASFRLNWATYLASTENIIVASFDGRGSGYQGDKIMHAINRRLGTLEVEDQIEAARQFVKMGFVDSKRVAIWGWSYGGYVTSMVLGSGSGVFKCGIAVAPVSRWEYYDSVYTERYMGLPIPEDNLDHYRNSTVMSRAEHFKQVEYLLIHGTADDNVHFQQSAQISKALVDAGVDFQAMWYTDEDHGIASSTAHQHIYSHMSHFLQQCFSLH

Molecular target: T1, plasma dipeptidylpeptidase IV (Mus musculus, UniProt P28843)
T1 construct: The blood samples were centrifuged at 6000 rpm for 2 minutes to separate plasma; from tissue; host or cells: plasma of male ICR mice (Charles River Laboratories Japan)
Assay: Inhibition of plasma dipeptidylpeptidase IV activity in mice by oral administration
Type: in vivo
Settings: male ICR mice, 0.1 mg/mL suspension at 10 mL/kg, 30 minutes after administration
Description: Each compound was suspended in 0.3% sodium carboxymethylcellulose to a concentration of 0.1 mg/mL. The preparation was orally administered to 8 weeks old male ICR mice (Charles River Laboratories Japan) at a dose of 10 mL/kg. Using an EDTA 2K-treated capillary tube, blood samples were collected from the tail vein before administration and 30 minutes after administration. The blood samples were centrifuged at 6000 rpm for 2 minutes to separate plasma. […] The inhibition was determined from the decrease in the enzymatic activity from the initial activity (% inhibition={(activity before administration−activity after administration)/(activity before administration)}×100).

Q: For `N#C[C@@H]1CCCN1C(=O)CNC12CC3CC(CC(O)(C3)C1)C2` [Compound A, (2S)-1-[[(3-hydroxy-1-adamantyl)amino]acetyl]-2-cyanopyrrolidine, reference compound], which inhibition at 1 mg/kg is on record?
A: Its inhibition at 1 mg/kg is 81%.
